Reference: patent US11801272B2, “Bacillus strains improving health and performance of production animals” (Novozymes A/S, priority 2015, dated 2023)

System: S. aureus ATCC 29213
Experiment: microbe, parasite or virus in culture
Details: Staphylococcus aureus

CN[C@H](CC(C)C)C(=O)N[C@H]1C(=O)N[C@@H](CC(N)=O)C(=O)N[C@H]2C(=O)N[C@H]3C(=O)N[C@H](C(=O)N[C@H](C(=O)O)c4cc(O)cc(O)c4-c4cc3ccc4O)[C@H](O)c3ccc(c(Cl)c3)Oc3cc2cc(c3O[C@@H]2O[C@H](CO)[C@@H](O)[C@H](O)[C@H]2O[C@H]2C[C@](C)(N)[C@H](O)[C@H](C)O2)Oc2ccc(cc2Cl)[C@H]1O [Vancomycin]
MIC (ATCC29213, read-out: MIC 1): 0.5 µg/mL (≈ 0.345 µM) | MIC (ATCC29213, read-out: MIC 2): 1 µg/mL (≈ 0.69 µM) | MIC (ATCC29213, read-out: MIC 3): 1 µg/mL (≈ 0.69 µM) | MIC (ATCC29213, read-out: MIC 4): 1 µg/mL (≈ 0.69 µM) | MIC (ATCC29213, read-out: MIC 5): 1 µg/mL (≈ 0.69 µM)

≈ marks a conversion by molar mass, not a printed value. Like-named read-outs stand apart in the source and are kept apart here.
